## Membrane permeability of cyclic peptides

PAMPA measures passive passage through an artificial lipid membrane. Permeability is given as log10 of P in cm/s; higher (less negative) is more permeable.

| compound | PAMPA (log10 cm/s) |
|---|---|
| COc1ccc(C[C@@H]2NC(=O)[C@@H](CC(C)C)NC(=O)[C@@H](NC(=O)[C@@H](CC(C)C)N(C)C(=O)[C@@H]3CCCN3C(C)=O)[C@@H](C)OC(=O)[C@@H]3CCCN3C(=O)[C@H](CC(C)C)NC(=O)[C@@H](C)N(C)C(=O)[C@@H](Cc3ccc(F)c(F)c3)NC2=O)cc1 | -5.76 |
| CC(=O)N[C@@H]1C(=O)N2CCC[C@H]2C(=O)N(C)[C@H](CC(C)C)C(=O)N(C)[C@H](CC(C)C)C(=O)N(C)[C@@H](CC(C)C)C(=O)N(C)[C@@H](CC(C)C)C(=O)N[C@@H](C)C(=O)N[C@@H](CC(C)C)C(=O)N2CCC[C@@H]2C(=O)O[C@@H]1C | -5.94 |
| CC(=O)N1CCC[C@H]1C(=O)N[C@@H]1C(=O)N(C)[C@H](CC(C)C)C(=O)N[C@H](CC(C)C)C(=O)N(C)[C@@H](CC(C)C)C(=O)N(C)[C@@H](CC(C)C)C(=O)N(C)[C@H](C)C(=O)N[C@@H](CC(C)C)C(=O)N2CCC[C@@H]2C(=O)O[C@@H]1C | -6.06 |
| CC(=O)N[C@@H]1C(=O)N2CCC[C@H]2C(=O)N(C)[C@H](CC(C)C)C(=O)N[C@H](CC(C)C)C(=O)N(C)[C@@H](CC(C)C)C(=O)N(C)[C@H](CC(C)C)C(=O)N[C@@H](C)C(=O)N[C@@H](CC(C)C)C(=O)N2CCC[C@@H]2C(=O)O[C@@H]1C | -6.42 |
| CC(=O)N1CCC[C@H]1C(=O)N(C)[C@H](CC(C)C)C(=O)N[C@@H]1C(=O)N[C@H](Cc2ccc(F)c(F)c2)C(=O)N[C@@H](CCc2ccccc2)C(=O)N[C@H](Cc2ccccc2)C(=O)N(C)[C@H](C)C(=O)N[C@@H](CC(C)C)C(=O)N2CCC[C@H]2C(=O)O[C@@H]1C | -6.23 |
| CC(=O)N1CCC[C@H]1C(=O)N[C@@H]1C(=O)N[C@H](CC(C)C)C(=O)N(C)[C@@H](CC(C)C)C(=O)N(C)[C@H](CC(C)C)C(=O)N[C@H](CC(C)C)C(=O)N[C@H](C)C(=O)N[C@@H](CC(C)C)C(=O)N2CCC[C@@H]2C(=O)O[C@@H]1C | -5.25 |
| CC(=O)N1CCC[C@H]1C(=O)N[C@@H]1C(=O)N(C)[C@H](CC(C)C)C(=O)N(C)[C@H](CC(C)C)C(=O)N(C)[C@H](CC(C)C)C(=O)N[C@H](CC(C)C)C(=O)N[C@H](C)C(=O)N[C@@H](CC(C)C)C(=O)N2CCC[C@@H]2C(=O)O[C@@H]1C | -5.64 |
| CC(=O)N[C@@H]1C(=O)N2CCC[C@H]2C(=O)N(C)[C@H](CC(C)C)C(=O)N[C@H](CC(C)C)C(=O)N[C@@H](CC(C)C)C(=O)N(C)[C@@H](CC(C)C)C(=O)N[C@@H](C)C(=O)N[C@@H](CC(C)C)C(=O)N2CCC[C@@H]2C(=O)O[C@@H]1C | -6.51 |
| CC(=O)N[C@@H]1C(=O)N2CCC[C@H]2C(=O)N(C)[C@H](CC(C)C)C(=O)N[C@H](CC(C)C)C(=O)N(C)[C@H](CC(C)C)C(=O)N(C)[C@@H](CC(C)C)C(=O)N[C@H](C)C(=O)N[C@@H](CC(C)C)C(=O)N2CCC[C@@H]2C(=O)O[C@@H]1C | -5.46 |
| CC(=O)N1CCC[C@H]1C(=O)N(C)[C@H](CC(C)C)C(=O)N[C@@H]1C(=O)N[C@H](CC(C)C)C(=O)N[C@@H](Cc2ccc(F)cc2)C(=O)N[C@H](CC2CCCCC2)C(=O)N(C)[C@H](C)C(=O)N[C@@H](CC(C)C)C(=O)N2CCC[C@H]2C(=O)O[C@@H]1C | -6.85 |
| CC(=O)N1CCC[C@H]1C(=O)N[C@@H]1C(=O)N(C)[C@H](CC(C)C)C(=O)N[C@@H](CC(C)C)C(=O)N(C)[C@H](CC(C)C)C(=O)N(C)[C@@H](CC(C)C)C(=O)N(C)[C@H](C)C(=O)N[C@@H](CC(C)C)C(=O)N2CCC[C@@H]2C(=O)O[C@@H]1C | -5.40 |
| CC[C@@H]1NC(=O)[C@@H](Cc2ccccc2)NC(=O)[C@@H](NC(=O)[C@@H](CC(C)C)N(C)C(=O)[C@@H]2CCCN2C(C)=O)[C@@H](C)OC(=O)[C@@H]2CCCN2C(=O)[C@H](CC(C)C)NC(=O)[C@@H](C)N(C)C(=O)[C@@H](CC)NC1=O | -6.85 |
| CC(=O)N[C@@H]1C(=O)N2CCC[C@H]2C(=O)N(C)[C@H](CC(C)C)C(=O)N(C)[C@@H](CC(C)C)C(=O)N(C)[C@@H](CC(C)C)C(=O)N[C@@H](CC(C)C)C(=O)N[C@H](C)C(=O)N[C@@H](CC(C)C)C(=O)N2CCC[C@@H]2C(=O)O[C@@H]1C | -6.37 |
| CCC[C@H]1NC(=O)[C@@H](NC(=O)[C@@H](CC(C)C)N(C)C(=O)[C@@H]2CCCN2C(C)=O)[C@@H](C)OC(=O)[C@@H]2CCCN2C(=O)[C@H](CC(C)C)NC(=O)[C@@H](C)N(C)C(=O)[C@@H](CC2CCCCC2)NC(=O)[C@H](CC)NC1=O | -5.47 |
| CC(=O)N[C@@H]1C(=O)N2CCC[C@H]2C(=O)N(C)[C@H](CC(C)C)C(=O)N(C)[C@@H](CC(C)C)C(=O)N[C@@H](CC(C)C)C(=O)N(C)[C@@H](CC(C)C)C(=O)N(C)[C@H](C)C(=O)N[C@@H](CC(C)C)C(=O)N2CCC[C@@H]2C(=O)O[C@@H]1C | -6.00 |
| CCC[C@H]1NC(=O)[C@@H](NC(=O)[C@@H](CC(C)C)N(C)C(=O)[C@@H]2CCCN2C(C)=O)[C@@H](C)OC(=O)[C@@H]2CCCN2C(=O)[C@H](CC(C)C)NC(=O)[C@@H](C)N(C)C(=O)[C@@H](CCC)NC(=O)[C@H](CC(C)C)NC1=O | -5.91 |
| CC(=O)N1CCC[C@H]1C(=O)N[C@@H]1C(=O)N[C@H](CC(C)C)C(=O)N(C)[C@@H](CC(C)C)C(=O)N(C)[C@@H](CC(C)C)C(=O)N[C@H](CC(C)C)C(=O)N[C@H](C)C(=O)N[C@@H](CC(C)C)C(=O)N2CCC[C@@H]2C(=O)O[C@@H]1C | -4.96 |
| CC(=O)N[C@@H]1C(=O)N2CCC[C@H]2C(=O)N(C)[C@H](CC(C)C)C(=O)N(C)[C@@H](CC(C)C)C(=O)N[C@@H](CC(C)C)C(=O)N[C@H](CC(C)C)C(=O)N(C)[C@H](C)C(=O)N[C@@H](CC(C)C)C(=O)N2CCC[C@@H]2C(=O)O[C@@H]1C | -5.88 |
| CCC[C@@H]1NC(=O)[C@@H](CCC)NC(=O)[C@@H](NC(=O)[C@@H](CC(C)C)N(C)C(=O)[C@@H]2CCCN2C(C)=O)[C@@H](C)OC(=O)[C@@H]2CCCN2C(=O)[C@H](CC(C)C)NC(=O)[C@@H](C)N(C)C(=O)[C@@H](CC2CCCCC2)NC1=O | -5.40 |
| CC[C@H]1NC(=O)[C@@H](NC(=O)[C@@H](CC(C)C)N(C)C(=O)[C@@H]2CCCN2C(C)=O)[C@@H](C)OC(=O)[C@@H]2CCCN2C(=O)[C@H](CC(C)C)NC(=O)[C@@H](C)N(C)C(=O)[C@@H](Cc2cccc3ccccc23)NC(=O)[C@H](CC(C)C)NC1=O | -5.64 |

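Conditions beyond the assay type are not listed; see the original paper. The list need not hold all peptides of the study. Entries at the database's floor value (log10 P of -10) are not listed.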

Collected by the curators of CycPeptMPDB (Li et al. 2023) from Kelly et al. 2021, doi:10.1021/jacs.0c06115.